Activity calls are given as the source filed them. The rule behind the calls is not given here.
System: RPT
Experiment: Induction of Mitochondrial biogenesis in rabbit RPT cells at 10 to 3000 nM after 24 hrs by FCCP-OCR assay relative to control
Type: functional, cell-based
Conditions: Oryctolagus cuniculus
How it was run: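 Primary cultures of rabbit renal proximal tubule cells, grown under improved conditions favouring aerobic respiration, were exposed to compound (10–3,000 nM) for 24 h. FCCP-uncoupled oxygen consumption rate was then read on a Seahorse XF-96. Plates included vehicle (DMSO <0.5%), SRT1720 10 μM positive control and blanks. Results are expressed as a ratio or percent fold change versus DMSO, mean ± s.e.m., N=4. A ratio >1.15 was classed as MB.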

COc1ccc(CC(C)NCC(O)c2ccc(O)c(NC=O)c2)cc1 (stereo unspecified)
Activity: Active
